Data taken from BindingDB's records for doi:10.1021/ml200239k (2012).

Biological target: T1, Tyrosine-protein kinase receptor TYRO3 (Homo sapiens, UniProt Q06418)
T1 sequence (Q06418 whole entry): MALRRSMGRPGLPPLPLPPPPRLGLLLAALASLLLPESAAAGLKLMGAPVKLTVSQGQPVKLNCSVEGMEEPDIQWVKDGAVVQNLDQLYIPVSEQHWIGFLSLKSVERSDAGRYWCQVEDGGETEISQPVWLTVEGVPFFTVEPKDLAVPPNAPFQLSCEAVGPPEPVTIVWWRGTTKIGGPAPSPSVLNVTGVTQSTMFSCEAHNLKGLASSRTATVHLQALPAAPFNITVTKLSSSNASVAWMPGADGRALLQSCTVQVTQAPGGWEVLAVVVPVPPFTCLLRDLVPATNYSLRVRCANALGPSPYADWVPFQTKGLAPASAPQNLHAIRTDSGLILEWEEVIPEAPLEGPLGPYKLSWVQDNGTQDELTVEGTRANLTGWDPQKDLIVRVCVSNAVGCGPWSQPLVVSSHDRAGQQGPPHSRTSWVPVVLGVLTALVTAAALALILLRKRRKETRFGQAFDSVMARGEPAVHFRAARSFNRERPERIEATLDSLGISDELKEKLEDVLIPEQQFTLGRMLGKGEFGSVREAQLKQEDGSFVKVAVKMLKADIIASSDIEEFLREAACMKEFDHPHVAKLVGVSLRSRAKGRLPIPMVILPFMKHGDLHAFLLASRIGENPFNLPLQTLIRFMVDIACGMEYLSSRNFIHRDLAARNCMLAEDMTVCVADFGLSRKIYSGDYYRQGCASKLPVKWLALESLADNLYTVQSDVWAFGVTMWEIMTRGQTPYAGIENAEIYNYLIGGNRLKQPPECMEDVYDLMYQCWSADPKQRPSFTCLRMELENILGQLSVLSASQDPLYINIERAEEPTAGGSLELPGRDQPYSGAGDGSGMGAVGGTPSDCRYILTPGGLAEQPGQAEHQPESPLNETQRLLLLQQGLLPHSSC
Experiment: Inhibition of Tyro3 using EFPIYDFLPAKKK-CONH2 as substrate after 180 mins by microfluid capillary electrophoresis assay

CNc1ncc2c(C(C)C)nn(CC3CCCNC3)c2n1 (stereo unspecified)
IC50: > 30 µM
